Data set [1] concerns Salmonella typhimurium TA104 recN2-4. Put plainly: VITOTOX test, light production (S/N) in the recN2-4 tester strain. As to conditions: for concentration at which S/R > 2 (recN2 − 4): without S9-mix, maximal S/N, 60-240 min.
The subject of data set [2] is Salmonella typhimurium TA104 pr1. Put plainly: VITOTOX test, toxicity evaluated by pr1 S/N curves. As to conditions: for Toxic (pri): without S9-mix, within the dose-range tested.
Data set [3] has as its system TA104 recN2-4 and TA104 pr1 strain. The experiment in a line: VITOTOX test, ratio of recN2-4 S/N over pr1 S/N (rec/pr1). The conditions noted are these: without S9-mix; for concentration at which S/R's of rec/pri >1.5 MAX: ratio of maximal S/N values; for concentration at which S/R's of rec/pri >1.5 MEAN: ratio of mean S/N values.

With ZnCl2, the “dose neither genotoxic nor toxic” value in data set [1] (recN2-4 strain, FIG. 2) is 3.7 µM. Moreover, the toxicity evaluation result in data set [2] (light production, without S9mix) is reported as “only the lowest dose appeared to be devoid of any toxicity”. The “Toxic (pri)” value in data set [2] was “+”. For the same compound, in data set [2] (without S9mix, FIG. 2), the “concentrations toxic for Salmonella typhimurium TA104” value is “higher than 7.4 μM”.

CdCl2: the “Toxic (pri)” value in data set [2] is given as “+”.

Take H2O2: the “concentration at which S/R > 2 (recN2 − 4)” value (“concentration … (recN2 − 4)” for short) in data set [1] is recorded as 2 ppm. In addition, the “Toxic (pri)” value in data set [2] is on record as “+”. For the same compound, in data set [3], the “concentration at which S/R's of rec/pri >1.5 MAX” value was found to be 4 ppm and the “concentration at which S/R's of rec/pri >1.5 MEAN” value was determined as 2 ppm.

K2Cr2O7: the “concentration … (recN2 − 4)” value in data set [1] was determined as 4 ppm. In addition, in data set [2], the “Toxic (pri)” value is listed as “+”. Moreover, in data set [3], the “concentration at which S/R's of rec/pri >1.5 MAX” value is reported as 4 ppm and the “concentration at which S/R's of rec/pri >1.5 MEAN” value came out at 4 ppm.

`O=C1c2cc([N+](=O)[O-])cc([N+](=O)[O-])c2-c2c1cc([N+](=O)[O-])cc2[N+](=O)[O-]`: the “concentration … (recN2 − 4)” value in data set [1] came to 0.08 ppm. In addition, the “Toxic (pri)” value in data set [2] is listed as “+”. Moreover, in data set [3], the “concentration at which S/R's of rec/pri >1.5 MAX” value worked out at 0.16 ppm and the “concentration at which S/R's of rec/pri >1.5 MEAN” value was determined as 0.04 ppm.

For the origin of these results see patent US6472152B1 (priority 1998, dated 2002).
